Measurements: PubChem BioAssay AID504766 (The Scripps Research Institute Molecular Screening Center, 2011)
Only a part is listed here, and it is no random draw. Calls of active or inactive are those of the source.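 The calls were made as follows: active = inhibition above the mean over all tested compounds plus 3 SD (cut at about 4.2% in these data); inactive = the rest.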

By UniProt entry, the sequences of proteins in these tests, tags left out. Where a name states a change or a piece, a line headed by the entry shows the natural chain unless it says otherwise.
UniProt P51843: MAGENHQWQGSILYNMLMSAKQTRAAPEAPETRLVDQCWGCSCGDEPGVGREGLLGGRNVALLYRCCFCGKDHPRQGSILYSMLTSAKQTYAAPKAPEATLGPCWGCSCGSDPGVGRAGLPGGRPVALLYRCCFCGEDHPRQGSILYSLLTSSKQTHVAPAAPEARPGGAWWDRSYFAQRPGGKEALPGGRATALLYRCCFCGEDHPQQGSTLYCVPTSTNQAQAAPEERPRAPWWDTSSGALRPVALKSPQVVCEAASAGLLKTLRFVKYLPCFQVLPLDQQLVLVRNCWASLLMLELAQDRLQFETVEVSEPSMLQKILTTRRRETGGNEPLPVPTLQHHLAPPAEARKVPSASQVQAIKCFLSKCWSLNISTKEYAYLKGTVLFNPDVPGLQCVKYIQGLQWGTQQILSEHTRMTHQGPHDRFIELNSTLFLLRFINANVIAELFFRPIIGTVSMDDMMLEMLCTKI

These compounds were tested against Nuclear receptor subfamily 0 group B member 1 (Homo sapiens) (UniProt P51843) (assay: relief of DAX1 transcriptional repression – cell-based, HEK293, Gal4-DAX1, luciferase luminescence, primary screen (AID 504766;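 also: 0% = DAX1-transfected cells with DMSO and 100% = empty-vector control cells with DMSO; inhibition shows as a rise in luminescence from relieved DAX1 repression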)). Details: HEK293 Gal4-DAX1 luciferase reporter, at 6.75 µM, stronger effect = higher value.

Row | Compound | inhibition
1 | N#C/C(=C\c1ccc(N(CCBr)CCBr)cc1)C(N)=O | inactive: 0.93%
2 | CC(=O)c1ccc(N2CC2c2ccncc2)cc1 (configuration not stated) | inactive: 0.92%
3 | COC(=O)C1(C)COP(=O)(NCc2ccccc2)OC1 (configuration not stated) | inactive: -0.46%
4 | Cc1ccccc1CN(C)C(=O)COC(=O)C(O)(c1ccccc1)c1ccccc1 | inactive: -0.47%
5 | C[C@@H]1C=CCP(=O)(Oc2ccccc2)O1 (some centres not stated) | inactive: 0.75%
6 | C[C@H]1OP(=O)(Oc2ccccc2)C[C@@H]2O[C@@H]21 (some centres not stated) | inactive: -0.2%
7 | CC(=O)Nc1ccc([As](=O)(O)O)c(O)c1 | inactive: 2.85%
8 | CC(=O)Nc1ccc(Oc2c([N+](=O)[O-])cc([N+](=O)[O-])cc2[N+](=O)[O-])cc1 | inactive: 1.06%
9 | O=P1(Nc2nc3ccc(Cl)cc3s2)COc2ccccc2O1 (configuration not stated) | inactive: 0.75%
10 | CCOc1ccc(C2=NCC(CBr)S2)cc1 (configuration not stated) | inactive: -0.05%
11 | CCc1cc(O)c([N+](=O)[O-])c(C)c1[N+](=O)[O-] | inactive: 0.78%
12 | CC(C)(C)C(=O)NC(Sc1ccccc1)C(Cl)(Cl)Cl (configuration not stated) | inactive: -3.08%
13 | COC(=O)c1cc2c(s1)N=C(c1ccccc1)N(C)P2(=O)N1CCOCC1 (configuration not stated) | inactive: 0.27%
14 | Cc1ccc(OP(=O)(Nc2ccccn2)Oc2ccc(C)cc2)cc1 | inactive: -0.9%
15 | CC(=O)NC(SC(=S)N(CC(C)C)CC(C)C)C(Cl)(Cl)Cl (configuration not stated) | inactive: 0.31%
16 | O=C(OC1CN2CCC1CC2)c1ccccc1 (configuration not stated) | inactive: 1.58%
17 | CCC(=O)N1C2C3N(C(=O)CC)C1C1N(C(=O)CC)C(C(N1C(=O)CC)N3C(=O)CC)N2C(=O)CC | inactive: -0.48%
18 | Cc1ccccc1OP(=O)(Nc1ccccn1)Oc1ccccc1C | inactive: -0.68%
19 | CC(NC(=O)COC(=O)C(O)(c1ccccc1)c1ccccc1)c1ccccc1 (configuration not stated) | inactive: 0.42%
20 | CN(C)C(=O)Oc1noc2ccccc12 | inactive: -1.13%
21 | O=c1c2cc([N+](=O)[O-])ccc2[nH]c2c([N+](=O)[O-])cc([N+](=O)[O-])cc12 | inactive: -4.88%
22 | O=C(NC1CCS(=O)(=O)C1)NP(=S)(Oc1ccccc1)Oc1ccccc1 (configuration not stated) | inactive: 1.17%
23 | CCNC(=S)/N=C(\N)N[N+](=O)[O-] | inactive: 0.33%
24 | O=P1(N(CCCl)CCCl)OCCC2CCCCN21 (configuration not stated) | inactive: -1.63%
25 | O=[N+]([O-])c1ncn(CCn2cnc([N+](=O)[O-])n2)n1 | inactive: 1.81%
26 | CC(=O)NC(SC(=S)N(C)C)C(Cl)(Cl)Cl (configuration not stated) | inactive: -0.04%

Row | Compound | inhibition
27 | O=[N+]([O-])c1ccc(O)c(/C=N/Nc2ccc([N+](=O)[O-])cc2[N+](=O)[O-])c1 | inactive: 0.23%
28 | O=[As](O)(c1ccccc1)c1ccc(O)cc1 | inactive: 0.56%
29 | Nc1ccc([As](=O)(O)c2ccc([N+](=O)[O-])cc2)cc1 | inactive: 2.47%
30 | C(Cc1nn[nH]n1)Cc1nn[nH]n1 | inactive: -0.24%
31 | O=C(OC1CN2CCC1CC2)c1cccc(Cl)c1 (configuration not stated) | inactive: 1.93%
32 | COc1ccc(N)c([N+](=O)[O-])c1[N+](=O)[O-] | inactive: -0.29%
33 | CN(C)C1(CNC(=O)c2ccc(Cl)c(S(N)(=O)=O)c2)CCCCC1 | inactive: 1.76%
34 | O=P(Nc1ccccn1)(c1ccc(Br)cc1)c1ccc(Br)cc1 | inactive: -0.08%
35 | O=P(Nc1nc2ccccc2s1)(c1ccccc1)c1ccccc1 | inactive: -1.08%
36 | C[C@H]1OP(=O)(Oc2ccccc2)[C@H](O)[C@H](O)[C@H]1N=[N+]=[N-] (some centres not stated) | inactive: -1.13%
37 | O=P(Nc1nccs1)(c1ccccc1)c1ccccc1 | inactive: 1.18%
38 | CC(C)C(=O)NC(Sc1ccccc1)C(Cl)(Cl)Cl (configuration not stated) | inactive: 1.27%
39 | c1nnnn1CCn1cnnn1 | inactive: 0.57%
40 | Nc1ccc([As](=O)(O)c2ccc(N)cc2)cc1 | inactive: 1.8%
41 | C[N+]1=C2C=CC=CC=C2SC12C([N+](=O)[O-])=CC([N+](=O)[O-])=C[C-]2[N+](=O)[O-] (configuration not stated) | inactive: -7.88%
42 | CCN(/C(=N/P(=O)(N1CCOCC1)N1CCOCC1)N1CCOCC1)c1ccc(OC)cc1 | inactive: 3%
43 | CC(C)=N/N=C(\N)N[N+](=O)[O-] | inactive: -0.43%
44 | CC(C)c1nc(Nc2ccccc2)n(P(=O)(N(C)C)N(C)C)n1 | inactive: 0.3%
45 | CN(C)C(=O)OCCc1n(C)cc[n+]1C | inactive: -0.36%
46 | c1cc(-c2nn[nH]n2)ccc1-c1nn[nH]n1 | inactive: 1.27%
47 | CC1CCN(C(=O)Oc2c(Cl)cc(Cl)c3cccnc23)CC1 | inactive: -0.69%
48 | COc1ccc(C2=NCC(CBr)S2)cc1 (configuration not stated) | inactive: -0.05%
49 | CC(=O)N1C2C3N(C(C)=O)C1C1N(C(C)=O)C(C(N1C(C)=O)N3C(C)=O)N2C(C)=O | inactive: 0.62%
50 | O=[N+]([O-])c1cccc2n[nH]nc12 | inactive: 2.45%
51 | Cc1ccc(NP(=O)(Oc2ccccc2)Oc2ccccc2)nc1 | inactive: -0.51%
52 | O=[N+]([O-])c1cc([N+](=O)[O-])c(CCNc2ccccc2)c([N+](=O)[O-])c1 | inactive: -0.91%

Row | Compound | inhibition
53 | CCc1nc2c(n1)c1c(non1O)c1c2no[n+]1[O-] | inactive: -0.81%
54 | CC(C)(C)C(=O)NC(Sc1ccncn1)C(Cl)(Cl)Cl (configuration not stated) | inactive: 1.21%
55 | O=[N+]([O-])c1ncn(CCn2ncnc2[N+](=O)[O-])n1 | inactive: 0.45%
56 | O=[N+]([O-])c1cccc(NC2=NCC(CBr)S2)c1 (configuration not stated) | inactive: -0.25%
57 | COC(=O)C1(C)COP(=O)(Nc2ccccc2)OC1 (configuration not stated) | inactive: 2.33%
58 | O=C(O)CNc1ccc([As](=O)(O)O)cc1 | inactive: -0.96%
59 | O=P1(N(CCCl)CCCl)OCCCS1 (configuration not stated) | inactive: -0.27%
60 | O=C(Nc1cc([As](=O)(O)O)ccc1O)c1ccccc1 | inactive: 0.99%
61 | CCN(N=Nc1nonc1N)c1nonc1N | inactive: 1.67%
62 | Nc1cccc2ccc([As](=O)(O)O)cc12 | inactive: -1.06%
63 | O=C(O)c1ccccc1[As](=O)(O)O | inactive: 0.93%
64 | CC(=O)Nc1ccc([As](=O)(O)O)cc1 | inactive: -0.57%
65 | CCCC1OP(N)(=O)OCC1CC (configuration not stated) | inactive: 1.68%
66 | CN(C)P(=O)(N(C)C)n1c(Nc2ccccc2)nnc1-c1ccccc1 | inactive: 2.16%
67 | O=P(Nc1nc2ccc(Cl)cc2s1)(c1ccccc1)c1ccccc1 | inactive: 0.94%
68 | CCOP(=O)(Nc1ccccc1)OCC | inactive: -0.19%
69 | Cc1cc(SC(NC(=O)c2ccc(F)cc2)C(Cl)(Cl)Cl)ncn1 (configuration not stated) | inactive: 0.28%
70 | CN(C(=O)Cc1ccc(Cl)c(Cl)c1)[C@H]1CCCC[C@@H]1N1CCCC1 | inactive: 0.82%
71 | Cc1ccc(NP(=O)(Oc2ccccc2F)Oc2ccccc2F)nc1 | inactive: 2.47%
72 | CC(C)CC(=O)NC(Sc1ccc(Cl)cc1)C(Cl)(Cl)Cl (configuration not stated) | inactive: -0.99%
73 | Nc1cc(N)c2nonc2c1[N+](=O)[O-] | inactive: 0.17%
74 | Oc1ccccc1CNc1ccccn1 | inactive: -0.04%
75 | O=C(NC(Sc1ccncn1)C(Cl)(Cl)Cl)c1ccccc1 (configuration not stated) | inactive: -2.07%
76 | NC(=O)c1cc([N+](=O)[O-])cc([N+](=O)[O-])c1N | active: 6.72%
77 | CN(C(=O)Cc1ccc(Cl)c(Cl)c1)[C@H]1CCCC[C@H]1N1CCCC1 | inactive: -0.7%
78 | Cc1ccc(N/C(=N/P(=O)(N2CCOCC2)N2CCOCC2)N2CCOCC2)cc1 | inactive: -1.68%

Row | Compound | inhibition
79 | COc1ccccc1OP(=O)(Nc1ccc(C)cn1)Oc1ccccc1OC | inactive: 0.43%
80 | Clc1ccc(Cl)c(NC2=NCC(CBr)S2)c1 (configuration not stated) | inactive: -1.6%
81 | CN1CCCC(OC(=O)C(c2ccccc2)c2ccccc2)C1 (configuration not stated) | inactive: -1.06%
82 | COc1ccc(N/C(=N/P(=O)(N2CCOCC2)N2CCOCC2)N2CCOCC2)cc1 | inactive: -0.18%
83 | O=[N+]([O-])c1cc(Oc2ccc([N+](=O)[O-])cc2C(F)(F)F)cc([N+](=O)[O-])c1 | inactive: -2.58%
84 | O=C(OC1CN2CCC1CC2)C12CC3CC(CC(C3)C1)C2 (configuration not stated) | inactive: -0.47%
85 | Cc1cc(=O)[nH]c(N[N+](=O)[O-])n1 | inactive: 0.48%
86 | Cc1c2c(nc3ccccc13)SC(C(Cl)Cl)C2 (configuration not stated) | inactive: -1.11%
87 | COc1ccc2nc(NP(=O)(c3ccccc3)c3ccccc3)sc2c1 | inactive: 0%
88 | COc1cc(I)ccc1[As](=O)(O)O | inactive: 1.04%
89 | O=P1(N(CCCl)CCCl)Nc2ccccc2N1 | inactive: 1.44%
90 | O=P1(N(CCCl)CCCl)OCCCN1CCCl (configuration not stated) | inactive: 2.08%
91 | CC(C)c1ccc(OP(=O)(Nc2ccccn2)Oc2ccccc2F)cc1 (configuration not stated) | inactive: 0.25%
92 | COC(=O)C1(C)COP(=O)(N2CCCCCC2)OC1 (configuration not stated) | inactive: 0.68%
93 | ClCCSc1nnc(-c2cccnc2)o1 | inactive: 2.42%
94 | O=C(OC1CN2CCC1CC2)c1cccc2[nH]cnc12 (configuration not stated) | inactive: 2.91%
95 | CCN(CC)C(=S)SC(NC=O)C(Cl)(Cl)Cl (configuration not stated) | inactive: -1.03%
96 | O=[N+]([O-])c1cc([N+](=O)[O-])c(-c2ccn[nH]2)s1 | inactive: -1.25%
97 | O=[As](O)(c1ccc(O)cc1)c1ccccc1O | inactive: 2.53%
98 | C[As](=O)(O)c1cccc(C(=O)O)c1 | inactive: 0.47%
99 | COc1cc(C(=O)NCC2(N3CCOCC3)CCCCC2)ccc1OCC(C)C | inactive: -0.42%
100 | O=[N+]([O-])c1ccc(-c2cc([N+](=O)[O-])c(O)c([N+](=O)[O-])c2)cc1 | inactive: 0.94%
101 | Cc1ccc2nc3c(c(C)c2c1)CC(C(Cl)Cl)S3 (configuration not stated) | inactive: 0.55%
102 | Cc1ccc(OP(=O)(Nc2ccc([N+](=O)[O-])cn2)Oc2ccc(C)cc2)cc1 | inactive: 0.83%
